Assay results reported in patent US5496697A, “Methods and apparatus for detecting the effect of cell affecting agents on living cells” (priority 1993, dated 1996).
Like-named read-outs stand apart in the source and are kept apart here.

Protein sequences, listed by entry. Tags and fused reporters are not part of them. Lines headed by an entry give the natural chain unless they say otherwise; changes in a name come on top.
UniProt P08482: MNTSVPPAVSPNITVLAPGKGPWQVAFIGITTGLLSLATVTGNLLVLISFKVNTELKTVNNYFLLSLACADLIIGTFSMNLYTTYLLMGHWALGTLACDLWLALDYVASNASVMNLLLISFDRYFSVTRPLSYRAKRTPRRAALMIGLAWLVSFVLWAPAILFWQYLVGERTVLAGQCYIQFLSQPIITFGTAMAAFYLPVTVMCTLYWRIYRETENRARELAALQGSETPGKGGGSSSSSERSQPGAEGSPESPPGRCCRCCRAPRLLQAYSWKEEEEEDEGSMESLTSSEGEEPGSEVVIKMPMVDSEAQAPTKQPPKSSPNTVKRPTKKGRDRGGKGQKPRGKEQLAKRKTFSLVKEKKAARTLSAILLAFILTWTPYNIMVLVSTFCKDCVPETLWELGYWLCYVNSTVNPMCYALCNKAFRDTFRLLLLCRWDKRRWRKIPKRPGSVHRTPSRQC

Columns and labels:
[1] = molecular target: T1, rat M1 muscarinic receptor (Rattus norvegicus, UniProt P08482); assay: metabolic rate of M1C-2 cells (B82 cells transfected with rat M1 muscarinic receptor)
[2] = molecular target: T1, rat M1 muscarinic receptor; assay: acidification by M1C-2 cells, protocol with increased temporal resolution; format: cell-based; set-up: expressed in transfected cells; host or cells: M1C-2 (murine B82 fibroblasts, an L cell derivative, transfected with the rat M1 receptor under the dexamethasone-inducible MMTV promoter; provided by Dr. J. C; Venter, NIH); settings: carbachol
Protocol: FIGS. 29 and 30 show results obtained with a protocol modified slightly to increase the temporal resolution of the rapid response of the M1C-2 cells to carbachol. Two chambers (one experimental and one control) were assembled with cells and equilibrated as described above,
During an off period, the flow rate was changed from 100 μl/min to 200 μl/min. When the flow resumed, an injection valve was switched to introduce carbachol containing medium into the cell chamber. The flow was stopped after 45 seconds and the acidification of the medium was followed (FIG. 29). The time derivative of the sensor potential (equivalent to pH) was calculated using a 5 point quadratic Savitsky-Golay (1964) algorithm and is shown in FIG. 30. (See Savitsky, A., and Golay, M. (1964) Smoothing and differentiation of data by simplified least squares procedures. Analytical Chem 36:1627-1639 .)
Thus, the rate of acidification can be followed with an improved resolution of ~2 seconds over the period in which the flow is off. […] At this point, flow must be restored and data collection-halted.
The response peak occurred 50-60 seconds after the cessation of medium flow. It should be noted that because a 5 point Savitsky-Golay algorithm was used in the calculations, the first few points are not valid; they include data points during the time of medium flow.

CTLL cells [3] = assay: metabolic rate of CTLL cells immobilized in agarose on a cover slip; format: cell-based, mice
Protocol: CTLL cells (a cytotoxic T-Cell line from mice) are a nonadherent cell line that requires the presence of Interleukin-2 (IL-2; an immune modulator) to remain viable. Two mL of cells were removed from a confluent T-25 flask of CTLL cells and centrifuged to pellet the cells. The supernatant was discarded and the cells were resuspended in 300 μL of a 2 % agarose solution (in medium). The cells were again centrifuged to a pellet, and a 2 μL aliquot was removed from the cell pellet and spread over an approximate 40 mm^2 circle on a cover slip that was housed in a humidified chamber. The cover slip chamber was then refrigerated for 20 minutes to allow the agarose to gel. The cover slip was removed from the humidified chamber and placed in a flow chamber. Medium containing 20 units/mL of IL-2 or medium only was alternately flowed across the cells. […] At this time, the cells were beginning to detach from the agarose gel. As expected, as the cell density decreased, so did the rate of acidification of the chamber.

CTLL cells [4] = assay: metabolic rate of CTLL cells trapped in wells; format: cell-based, mice
From the text: CTLL cells were trapped in the flow chamber in rectangular wells. Referring to FIG. 25, an array 1 of 1000 μm long, 50 μm wide slots, with 50 μm separation between slots, was cut into a 50 μm thick piece of stainless steel foil 2 with an eximer laser. This was mounted in the 100 μm deep flow chamber under pieces of 50 μm thick plastic 3 arranged to press the foil against the silicon semiconductor electrode surface when the cover slip was mounted. This left a channel about 1 mm wide and 50 μm deep above the slots, thereby forming wells.
CTLL cells were settled into the wells at a linear flow velocity of the medium in the channel of no more than about 15 μm/sec. Alternatively, the wells could be loaded by flowing the medium faster than 15 μm/sec. until the cells were suspended above the wells, and then stopping the flow entirely for approximately 10 seconds while the cells sedimented into the wells. This flow/stop procedure was repeated until sufficient cells were trapped.
The cells remained in the wells for flow rates below approximately 100 μm/sec, above which many were flushed out. Alternatively, momentary inversion of the chamber caused the cells to sediment into the flow stream and be flushed away at lower flow rates.
Metabolic rates of -30 to -60 μV/sec were obtained from CTLL cells. […] This is an indication that the presence of IL-2 can be detected on the time scale of a few hours. […]

[5] = M1C-2 cells, carbachol, FIG. 27

## C[N+](C)(C)CCOC(N)=O [carbachol]
[1]; [5]
  time of peak: approximately 50 seconds
  time to steady state level: 200 s
[1]; read-out: increase in metabolic rate at peak
  activation at 3.12 µM: 80%
[1]; read-out: increase in metabolic rate vs. baseline
  activation at 10000 µM: 75%
[1]; read-out: steady state increase in metabolic rate
  activation at 3.12 µM: ~40%
[2]
  time of response peak after cessation of medium flow: 50 to 60 s

## IL-2: Interleukin-2 (IL-2 ; an immune modulator)
CTLL cells [3]; 20 units/mL IL-2
  metabolic rate when IL-2 was reintroduced: began to increase
CTLL cells [3]; 20 units/mL IL-2 removed, vs. control rate
  metabolic rate when IL-2 was removed: began to decline
CTLL cells [4]; IL-2 20 U/ml
  metabolic rate after several hours with IL-2, of control value: over 50%
CTLL cells [4]; IL-2 withdrawn
  metabolic rate after several hours without IL-2, of control value: 20-30%
